Measured values: US11306156
Values joined by “and” are separate entries in the source; they are usually repeats but may differ in a detail not shown here. Equal entries are not always repeated.

Assays:
[1] = biological target: Cetuximab full-length IgG1 heavy chain (H2 of the wild-type trastuzumab/cetuximab bispecific system); test: SMCA: co-expression of H1, H2, L1, L2 in CHO cells, protein A purification, LC-MS; competing light chain: trastuzumab LC (untagged)
[2] = biological target: Cetuximab full-length IgG1 heavy chain (H2 of the wild-type trastuzumab/cetuximab bispecific system); test: SMCA: co-expression of H1, H2, L1, L2 in CHO cells, protein A purification, LC-MS; competing light chain: FLAG-trastuzumab LC

Substance | % H2L2 Pairing (over all H2 species) [1] | % H2L2 Pairing (over all H2 species) [2]
Cetuximab light chain with N-terminal FLAG tag | 29.6% and 29.4% and 24.6% | –
Cetuximab light chain with N-terminal HA tag | 21.5% and 22.5% and 18.7% | –
Cetuximab light chain, untagged | – | 60.3% and 60.8% and 60.1%
